# Data reported in PubChem BioAssay AID2546 (National Center for Advancing Translational Sciences (NCATS), 2010).
# The entries are a selection whose mix differs from that of the whole data set. Records with an inconclusive call do not appear. Some salts and complexes are drawn in separate pieces, as the source files them; their charges need not balance. Calls of active or inactive are those of the source. The call rests on the fitted dose curve; in most records, active means well fitted inhibition curve with a large enough effect; inconclusive means small, poorly fitted or top-dose-only effect, or effect the other way; inactive means flat fitted curve, though single readings scatter.
# Assay: VP16 counterscreen qHTS for inhibitors of ROR gamma transcriptional activity;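 further: Gal4-VP16 expression switched on by copper sulfate through the metallothionein promoter; nearly all actives have a fitted effect of over 50% in size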
# Conditions: Drosophila S2 Gal4-VP16 UAS-luciferase, luminescence, 20 h; at 53.6 µM (top of the series) unless noted
# On the % scale 0 is the no-effect control and ±100 the full control effect.
row,Structure (SMILES),"activity, negative = inhibition"
1,CCCOc1ccc(C(=O)NCC2(N(C)C)CCCCC2)cc1OC,inactive: 19.1%
2,O=C(OC1CN2CCC1CC2)c1ccc([N+](=O)[O-])cc1 (stereo not given),inactive: 8.6%
3,COc1ccc2c(c1O)-c1c(O)c(OC)cc3c1[C@H](C2)[N+](C)(C)CC3.O=[N+]([O-])c1cc([N+](=O)[O-])c([O-])c([N+](=O)[O-])c1[O-],inactive: -6.36%
4,COc1cc(OC)c(C(=O)NCC2(N(C)C)CCCCC2)cc1OC,inactive: -8.68%
5,CCOP(=O)(Cl)Cl,inactive: 5.45%
6,COc1ccc(CN(CCCl)CCCl)cc1Cl,inactive: -4.7%
7,CN(C)c1cccc(C(=O)NCC2(N3CCCCC3)CCCCC2)c1,inactive: -5.93%
8,O=[N+]([O-])c1cc([N+](=O)[O-])c(OC2CCCCC2O)c([N+](=O)[O-])c1 (stereo not given),inactive: 1.63%
9,O=C(NCC1(N2CCOCC2)CCCCC1)c1cc(=O)[nH]c2ccccc12,inactive: 4.82%
10,COc1cc(C(=O)NCC2(N3CCCCC3)CCCCC2)ccc1OC(F)F,inactive: -0.519%
11,CN1CCN(CCOC(=O)C(O)(c2ccccc2)c2ccccc2)CC1,inactive: 1.33%
12,O=C(NCC1(N2CCCCC2)CCCCC1)c1cccc(C(F)(F)F)c1,inactive: -1.47%
13,N#CC1(Nc2ccccc2)CCN(CCc2ccccc2)CC1,inactive: -3.8%
14,O=C(NCC1(N2CCCCC2)CCCCC1)c1cccc([N+](=O)[O-])c1,inactive: -2.6%
15,O=C(NCC1(N2CCCCC2)CCCCC1)c1ccc(OC(F)F)cc1,inactive: 0.256%
16,COc1cc(C(=O)NCC2(N(C)C)CCCCC2)ccc1OC(F)F,inactive: 2.29%
17,O=C(NCC1(N2CCCCC2)CCCCC1)c1ccc(F)cc1,inactive: -2.19%
18,CCOC(=O)N1CCC(Nc2ccc(F)cc2)CC1,inactive: -5.02%
19,COc1ccc(NC2CCN(CCc3ccccc3)CC2)c(OC)c1,inactive: 1.8%
20,CCOc1ccc(C)cc1CN(CCCl)CCCl,inactive: -3.01%
21,N#CC1(Nc2ccccc2)CCN(Cc2ccccc2)CC1,inactive: -4.76%
22,O=C(OC1CN2CCC1CC2)C1c2ccccc2Oc2ccccc21 (stereo not given),inactive: -1.28%
23,CCOC(=O)N1CCC(Nc2ccc(OC)cc2)CC1,inactive: 29.3%
24,Cc1cc(C)cc(N(C(=O)c2ccccc2)C2CCN(C(=O)OC(C)(C)C)CC2)c1,inactive: -0.115%
25,O=C(NCC1(N2CCOCC2)CCCCC1)c1cc2ccccc2o1,inactive: 14.3%
26,CSc1ccccc1C(=O)NCC1(N2CCCCC2)CCCCC1,inactive: -23.4%
27,COc1ccc(C(=O)NCC2(N3CCCCC3)CCCCC2)cc1,inactive: -22.7%
28,CC(C)(C)OC(=O)N1CCC(N(C(=O)c2ccccc2)c2ccc(F)cc2)CC1,inactive: -0.0663%

row,Structure (SMILES),"activity, negative = inhibition"
1,COc1ccc(C(=O)NCC2(N3CCCCC3)CCCCC2)c(OC)c1OC,inactive: -9.37%
2,O=C(NCC1(N2CCCCC2)CCCCC1)c1ccc(=O)[nH]c1,inactive: 2.47%
3,CCCOc1ccc(C)cc1CN(CCCl)CCCl,inactive: -5.36%
4,COc1cccc(C(=O)N(c2cc(C)cc(C)c2)C2CCN(C(=O)OC(C)(C)C)CC2)c1,inactive: -1.46%
5,COc1cc(OC)cc(C(=O)NCC2(N3CCOCC3)CCCCC2)c1,inactive: -0.545%
6,CCC(CO)(C(=O)OC1CN2CCC1CC2)c1ccccc1 (stereo not given),inactive: -2.25%
7,CC(C)(C)OC(=O)N1CCC(Nc2ccccc2)CC1,inactive: 14.5%
8,O=C(O)C1(Nc2ccccc2)CCN(Cc2ccccc2)CC1,inactive: -13.2%
9,CCCOc1ccc(C(=O)NCC2(N(C)C)CCCCC2)cc1,inactive: 7.66%
10,CCOc1ncccc1C(=O)NCC1(N2CCOCC2)CCCCC1,inactive: -0.738%
11,CN1CCC(Nc2ccc(F)c(Cl)c2)CC1,inactive: -3.84%
12,CN(C)c1ccc(C(=O)NCC2(N3CCCCC3)CCCCC2)cc1,inactive: -4.27%
13,CCN1CCC(Nc2cccc(F)c2)CC1,inactive: -6.42%
14,Fc1ccccc1NC1CCN(Cc2ccccc2)CC1,inactive: 1.63%
15,COc1cc(OC)cc(C(=O)NCC2(N3CCCCC3)CCCCC2)c1,inactive: 7.13%
16,ClCCOP(OCCCl)OCCCl,inactive: -5.45%
17,CN(C)C1(CNC(=O)c2cccc(C#N)c2)CCCCC1,inactive: -8.66%
18,c1ccc(CN2CCC(Nc3ccccc3)CC2)cc1,inactive: -1.2%
19,CCCN1CCC(Nc2cc(OC)cc(OC)c2)CC1,inactive: 4.34%
20,CCOC(=O)C(CC)C1=NC(C)(C)Cc2ccccc21.O=[N+]([O-])c1cc([N+](=O)[O-])c(O)c([N+](=O)[O-])c1 (stereo not given),inactive: -6.74%
21,N#Cc1ccc(C(=O)NCC2(N3CCCCC3)CCCCC2)cc1,inactive: -7.69%
22,CC(C)(C)OC(=O)N1CCC(N(C(=O)c2ccccc2)c2ccc(Cl)cc2)CC1,inactive: -1.24%
23,O=C(OC1CN2CCC1CC2)C1c2ccccc2C=Cc2ccccc21 (stereo not given),inactive: -0.326%
24,O=C(O)c1cccc(Nc2c([N+](=O)[O-])cc([N+](=O)[O-])cc2[N+](=O)[O-])c1,inactive: 3.87%
25,CCOC(=O)N1CCC(Nc2ccc(C)cc2)CC1,inactive: 12.4%
26,N/C(=N\O)c1c(N)no[n+]1[O-],inactive: 1%
27,COc1ccc(C(=O)NCC2(N3CCOCC3)CCCCC2)cc1OC,inactive: -9.64% [at 10 µM]
